From paper PMC10948146

Legend:
[1] = target: nucleosome on lambda DNA, reconstituted with fluorescently labeled histone octamer (Cy3-H2A or JFX554-H2A(K120C)) (UniProt P04911)
[2] = target: nucleosome on lambda DNA, reconstituted with fluorescently labeled histone octamer (Cy3-H2A or JFX554-H2A(K120C)) (UniProt P04911); remark: listed apart in the source
[3] = target: nucleosome on lambda DNA, reconstituted with fluorescently labeled histone octamer (Cy3-H2A or JFX554-H2A(K120C)) (UniProt P04911); assay: single-molecule two-color colocalization on optically trapped DNA (optical tweezers with confocal microscopy); JFX650-labeled remodeler on sparse lambda nucleosome array (Cy3 or JFX554 on H2A) at ~5 pN, no ATP; dwell time of the 'non-diffusive' state of remodelers colocalized within ~500 bp of a nucleosome; double exponential fits
[4] = target: nucleosome on lambda DNA, reconstituted with fluorescently labeled histone octamer (Cy3-H2A or JFX554-H2A(K120C)) (UniProt P04911); assay: single-molecule two-color colocalization on optically trapped DNA (optical tweezers with confocal microscopy); as a2, with 1 mM ATPγS
[5] = target: nucleosome on lambda DNA, reconstituted with fluorescently labeled histone octamer (Cy3-H2A or JFX554-H2A(K120C)) (UniProt P04911); assay: single-molecule two-color colocalization on optically trapped DNA (optical tweezers with confocal microscopy); as a2, with 1 mM ATP; translocation events are included in the 'non-diffusive' state

| Substance | average nucleosome translocation speed (1 mM ATP) [1] [bp/s] | median duration of uninterrupted, speed-constant nucleosome translocations (1 mM ATP) [1] [s] | half-life of nucleosome translocation events (1 mM ATP) [2] [s] | half-life of the non-diffusive state at a nucleosome [3] [s] | half-life of the non-diffusive state at a nucleosome [4] [s] | half-life of the non-diffusive state at a nucleosome [5] [s] |
| --- | --- | --- | --- | --- | --- | --- |
| ISW2 chromatin remodeling complex with Isw2-3xFlag-HaloTag, labeled with JFX650 (from UniProt Q08773 1-1120) | 29 | 22 | 17 | 28 | 28 | 12 |
| RSC chromatin remodeling complex with Sth1-3xFlag-HaloTag, labeled with JFX650 or JFX554 (from UniProt P32597 1-1359) | 29 | 33 | 20 | 18 | 28 | 23 |
